# Like-named read-outs stand apart in the source and are kept apart here.
# How the values were obtained:
# [1] = system: Salmonella typhimurium LT2 strain SL 696; test: MIC of antibiotics in the presence of polymyxin nonapeptide, microtiter plate, S. typhimurium; type: cell-based; details: for minimum inhibitory concentration (MIC) of the antibiotic: S. typhimurium SL 696, 18 h
# Method: (§1) Methods. Smooth Salmonella typhimurium LT2 strain SL 696 (Wilkinson et al 1972 J. Gen. Microbiol. 70,527) was used as indicator organism. It was grown in Luria broth (Miller 1972. Experience in molecular genetics, Cold Spring Harbor Laboratory, New York) at 37° C. in a rotary shaker (220 rpm) into early logarithmic growth phase (Klett 40 units, Klett-Summerson colorimeter, red filter) washed with 0.9% NaCl and resuspended in 0.9% NaCl (final optical density 120 Klett units corresponding to approx. 10^9 cells/ml).
# (§2) The following antibiotics were used: novobiocin (Sigma Chemical Co., St. Louis, Mo., United States), fusidic acid (sodium salt; Lovens Kemiske Fabrik, Copenhagen, Denmark), erythromycin ethylsuccinate (Orion Pharmaceuticals, Helsinki, Finland), clindamycin hydrochloride (The Upjohn Company, Kalamazoo, Mich., United States), nafcillin (sodium salt; Wyeth, Great Valley, Philadelphia, Pa., United States), cloxacillin (sodim salt; Astra, Sodertalje, Sweden), and benzylpenicillin (sodium Salt; Novo Industri, Copenhagen, Denmark). Erythromycin ethylsuccinate stock solution was prepared by dissolving 5.5 mg of erythromycin […] with 2 ml of 96% ethanol whereafter deionized water was added to a final volume of 5.5 ml. Other antibiotics were readily dissolved in deionized water.
# Experimental procedure: Davis minimal growth medium (Sanderson et al, 1972, Bact. Rev. 36,608) containing glucose (1 g/l), casaminoacids (1 g/l. Difco), tryptophan (20 mg/l), and increasing amounts of a particular antibiotic was inoculated with 10^4 cells per ml of a fresh suspension of indicator bacteria. Aliquots (200 μl) of this inoculated medium were pipetted in wells of a microtiter plate (Titertek, CAT NO. 76-213-05, Flow Laboratories, United States). Each well already contained increasing amounts of the particular polycationic agent in 30 μl of 0.9% NaCl. The plates were sealed with adhesive tape and incubated at 37° C. for 18 h.
# Methods. The known compound, polymyxin E nonapeptide (colistin E nonapeptide, Japanese patent specification Nos. 4178/1971 and 51355/1972) having the following formula: [drawing 5] where leu is leucine, thr is threonine, and dab is diaminobutyric acid, was prepared from polymyxin E (colistin) using an enzymatic ficin treatment as described by Chihara et al (Agr. Biol. Chem. 37,2455, 1973). The bacterial strains and the method used in the sensitivity determination has been described in Example 3 and 4.
# [2] = system: E. coli strain IH 3080 (018:K1); test: MIC of antibiotics in the presence of polymyxin nonapeptide, microtiter plate, E. coli; type: cell-based; details: E. coli 018:K1 strain IH 3080; from Table 2
# Method: as §1
# as §2, with “water. […]” for “water.”
# [3] = system: E. coli strain IH 3080 (018:K1); details: for Number of dead mice: control 14 mice, PMBN-group 16 mice
compound,measurement,setting,value
"CCC[C@@H]1C[C@@H](C(=O)N[C@@H]([C@H]2O[C@H](SC)[C@H](O)[C@@H](O)[C@H]2O)[C@H](C)Cl)N(C)C1.Cl [Clindamycin, clindamycin hydrochloride]",minimum inhibitory concentration (MIC) of the antibiotic,[1]; PMBN 0 μg/ml,100
same,minimum inhibitory concentration (MIC) of the antibiotic,[1]; PMBN 0.3 μg/ml,30
same,minimum inhibitory concentration (MIC) of the antibiotic,[1]; PMBN 1 μg/ml,10
same,minimum inhibitory concentration (MIC) of the antibiotic,[1]; PMBN 3 μg/ml,10
same,minimum inhibitory concentration (MIC) of the antibiotic,[1]; PMBN 10 μg/ml,10
same,minimum inhibitory concentration (MIC) of the antibiotic,[1]; PMBN 30 μg/ml,10
same,factor by which PMBN sensitized the strain to the antibiotic,"[1]; S. typhimurium strain SL 696, from Table 1",10 times
same,factor by which PMBN sensitized the strain to the antibiotic,[2],10 times
same,Number of dead mice,"[3]; day 1 after infection, clindamycin 100 mg/kg, PMBN 5 mg/kg i.p.",1
same,Number of dead mice,[3]; day 2 after infection,11
same,Number of dead mice,[3]; day 3 after infection,12
same,Number of dead mice,[3]; day 4 after infection,12
same,Number of dead mice,[3]; day 5 after infection,12
same,therapeutic action against the E. coli infection,"[3]; mice, clindamycin 100 mg/kg, PMBN 5 mg/kg",without any therapeutic action
